The values that follow come from patent US11771694B2, “Arylamide compounds for treatment and prevention of viral infections” (priority 2020, dated 2023).

Converted amounts (≈) assume the structure as drawn.

For this test, the system named is S. aureus.

Regarding `CC[C@H](C)[C@H](NC(=O)CN)C(=O)NCC(=O)N[C@@H](C)C(=O)N[C@H](C(=O)N[C@@H](CC(C)C)C(=O)N[C@@H](CCCCN)C(=O)N[C@H](C(=O)N[C@@H](CC(C)C)C(=O)N[C@H](C(=O)N[C@H](C(=O)NCC(=O)N[C@@H](CC(C)C)C(=O)N1CCC[C@H]1C(=O)N[C@@H](C)C(=O)N[C@@H](CC(C)C)C(=O)N[C@H](C(=O)N[C@@H](CO)C(=O)N[C@@H](Cc1c[nH]c2ccccc12)C(=O)N[C@H](C(=O)N[C@@H](CCCCN)C(=O)N[C@@H](CCCNC(=N)N)C(=O)N[C@@H](CCCCN)C(=O)N[C@@H](CCCNC(=N)N)C(=O)N[C@@H](CCC(N)=O)C(=O)N[C@@H](CCC(N)=O)C(N)=O)[C@@H](C)CC)[C@@H](C)CC)[C@@H](C)O)[C@@H](C)O)C(C)C)C(C)C` [melittin], the “MIC S. aureus” value stood at 2 µg/mL (≈ 0.703 µM).
